Only a part is listed here, and it is no random draw. Calls of active or inactive are those of the source.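 The calls were made as follows: active = initial fluorescence not abnormally high and integrated response B-score, plate-corrected, over 3 SD above library mean; inactive = the rest.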
biological target: High affinity choline transporter 1 (Homo sapiens) (UniProt Q9GZV3); test: CHT positive allosteric modulators, primary screen, cell-based, membrane potential dye, choline EC20 (AID 488977); details: CHT-expressing cells, at 10 µM, active compounds read high, LV-AA mutant CHT in HEK293 cells

Protein sequences, listed by entry. Tags and fused reporters are not part of them. Lines headed by an entry give the natural chain unless they say otherwise; changes in a name come on top.
UniProt Q9GZV3: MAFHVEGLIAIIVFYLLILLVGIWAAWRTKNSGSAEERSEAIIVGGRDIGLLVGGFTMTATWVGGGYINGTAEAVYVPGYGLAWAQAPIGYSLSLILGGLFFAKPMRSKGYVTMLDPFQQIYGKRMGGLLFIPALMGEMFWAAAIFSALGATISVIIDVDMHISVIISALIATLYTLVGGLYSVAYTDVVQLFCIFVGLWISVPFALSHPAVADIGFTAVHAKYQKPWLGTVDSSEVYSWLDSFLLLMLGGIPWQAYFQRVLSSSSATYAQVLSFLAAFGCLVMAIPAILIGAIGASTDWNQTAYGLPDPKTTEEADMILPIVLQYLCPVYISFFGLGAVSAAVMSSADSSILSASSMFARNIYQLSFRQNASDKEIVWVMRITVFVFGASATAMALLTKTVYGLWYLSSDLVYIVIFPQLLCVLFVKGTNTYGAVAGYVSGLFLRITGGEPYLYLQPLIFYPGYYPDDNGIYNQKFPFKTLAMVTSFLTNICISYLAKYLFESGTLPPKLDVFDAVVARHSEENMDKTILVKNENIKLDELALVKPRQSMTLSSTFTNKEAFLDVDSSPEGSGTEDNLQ

For `NC(=O)c1cc([N+](=O)[O-])cc([N+](=O)[O-])c1N`, which B-score is on record?
The B-score was inactive: 0.

For `CCc1nc2c(n1)c1c(non1O)c1c2no[n+]1[O-]`, which B-score is on record?
The B-score was inactive: 0.

For `CC(Cc1ccc(O)cc1)NCC(O)c1cc(O)cc(O)c1` (stereo not drawn), which B-score is on record?
The B-score was inactive: 0.

— PubChem BioAssay AID488977 (Johns Hopkins Ion Channel Center, 2010)
